Binding of CDR-mutated scFvs to a peptide of the spike HR2 region

Reference: Engelhart et al. 2022, doi:10.1038/s41597-022-01779-4. File: FLAb, binding data.

Target: peptide PDVDLGDISGINAS, taken from heptad repeat 2 (HR2) of SARS-CoV-2 spike.

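Phage display of a naive human antibody library on the peptide gave the parent. In library AAYL50, one, two or three CDR residues were substituted; doubles and triples were drawn at random. The scFvs were displayed on barcoded MATa yeast, the peptide on MATalpha yeast. Pairs that bind mate more often; barcode pairs of the diploids are counted by sequencing. Each replicate has its own calibration line, from reference interactions of the BCL2 family. Each pool was mated in three replicate cultures.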

Ab-14 is the parent antibody, in scFv form: VH, then the linker GGGGSGGGGSGGGGS, then VL. The heavy chain is unchanged in all variants.
VH: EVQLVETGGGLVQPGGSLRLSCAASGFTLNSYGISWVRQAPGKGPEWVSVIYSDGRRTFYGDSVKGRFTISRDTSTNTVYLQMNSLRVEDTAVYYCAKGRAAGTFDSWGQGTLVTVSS
VL: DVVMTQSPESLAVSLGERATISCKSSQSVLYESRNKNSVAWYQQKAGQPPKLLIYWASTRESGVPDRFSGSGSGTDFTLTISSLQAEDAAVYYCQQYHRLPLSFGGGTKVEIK

Each variant is given by its three light chain CDRs, as the data file delimits them; those of the parent are KSSQSVLYESRNKNSVA, WASTRES, QQYHRLPLS. Scale: log10 of Kd in nM, estimated from mating counts; low values are strong binders. The mean shown is taken over the replicates in which the pair was detected. A pair that was not seen in any replicate is written "nd"; this usually means weak binding, but a binder can also be missed. The list is sorted by this average, lowest first, undetected variants last.

CDR-L1,CDR-L2,CDR-L3,"mean, log10 nM",seen in
KSSQSMLYESRNKNSVA,YASTRES,QQYHRLPLS,0.19,3 of 3
KSSQSVLYESRNKNSVA,KASTRES,QQMHRLRLS,0.67,3 of 3
KSSQSVLYESRNKGSVA,WASTREE,QQYHRLMLS,0.69,3 of 3
KSSQSVLPESANKNSVA,WASTRES,QQYHPLPLS,0.72,3 of 3
KSSQGVLYESRTKNSVA,WGSTRES,QQYHRLPLS,0.82,3 of 3
KSSQSVDYESRNKNSVA,WASTRES,QQYHRLPCW,0.86,3 of 3
KSSQSVLYESVNKNQVA,WASTRET,QQYHRLPLS,0.89,3 of 3
KSSHSVLYESRNKNSVA,WGSTRES,QQYHRLWLS,0.94,3 of 3
KSKQSVLYNSRNKNSVA,WASTRES,QQYHRLPLS,1.12,3 of 3
KLSQSVLYECRNKNSVA,WAFTRES,QQYHRLPLS,1.60,3 of 3
KSTQSVLYESRSKNSVA,WASTRES,QQYHRLPDS,1.64,3 of 3
KSSQSVLAESRNKISVA,WASTRES,QQDHRLPLS,1.79,3 of 3
KSSQSVLYESRIKNSVA,WASTRES,QQYCRLPLS,1.98,3 of 3
KSSQSVLYESRDKNSVA,WASTRFS,QQYHRLPMS,2.02,3 of 3
KSSQSVLYISKNKNSVA,WASQRES,QQYHRLPLS,2.12,3 of 3
KSSQSVLYESRNKNAVA,WASTRET,QQYHRLPMS,2.17,3 of 3
KSSQSVLFEHRNKNSVA,WASTRES,QQYHRGPLS,2.35,3 of 3
KSSNSVLYESRNKNSVA,WASTRES,GQYGRLPLS,2.43,3 of 3
KSSKSVLYESRNKNSVA,WASTRES,QQYTRLPNS,2.56,3 of 3
KSSQSVLYESRETNSVA,WASTRES,QQGHRLPLS,2.69,3 of 3
KSSQSDLPESRNKNSVA,WISTRES,QQYHRLPLS,2.87,3 of 3
YSSQSVLYMSRNKNSVA,WADTRES,QQYHRLPLS,3.16,3 of 3
KKSQSVLYESRNKNSVA,WASTRES,QQYHRLWLA,3.26,1 of 3
KSSQQVTYESRNKNSVA,WASTRES,QEYHRLPLS,3.57,2 of 3

Further variants, results first:

"mean, log10 nM",seen in,CDR-L1,CDR-L2,CDR-L3
3.79,3 of 3,KSSQSVLYESRNKNAVA,WALWRES,QQYHRLPLS
3.85,3 of 3,KSMQSVLWESRNKNSVA,WASTRES,QVYHRLPLS
4.06,1 of 3,KSSQSVLYESRLKNSVA,WASTRES,QQYHRLPLK
4.09,2 of 3,KSSQEVIYESRNKNSNA,WASTRES,QQYHRLPLS
4.31,2 of 3,KSSQSVRYESRNKNSVF,WASTRES,QQYHRLPIS
4.59,1 of 3,KSSYSVLYESRNKSSVW,WASTRES,QQYHRLPLS
4.63,2 of 3,KSSQSVLYESRNKHSVA,WASTRTS,HQYHRLPLS
4.68,3 of 3,KSSQSVLYESRNKESVA,WASTRES,QQYHRGPRS
5.00,2 of 3,KMSFSVLYESRNKNSVA,WASTRES,QQTHRLPLS
5.38,1 of 3,KSSQSVLYESRNKNSVA,FASTMES,QQYHRLPLS
5.46,1 of 3,KSSQSVLYESRNKNSVH,WASTRSS,QQYHRLPGS
5.53,3 of 3,KSSQSVLYESRTKNSAA,WASTRCS,QQYHRLPLS
nd,0 of 3,KKCQSVLYESRNKNSVA,WASTRES,QQYHRLPLM
nd,0 of 3,KSSQSVLYESRIKNSVA,WASTRES,LQYHRLPLS
nd,0 of 3,KSSQSVLYEWRNKESVF,WASTRES,QQYHRLPLS
nd,0 of 3,KSSQSVLIESRNKNSVA,WASTRES,QQYHRLCLI
nd,0 of 3,KSSQSVLYESRNKNSVA,GASTVES,QQYHRLPRS
nd,0 of 3,MSSQSVLYESFNKNSVA,WASTRES,QQYHRLPKS
nd,0 of 3,KSSQLVLYESRCKGSVA,WASTRES,QQYHRLPLS
nd,0 of 3,KSSQSHLYESRNKNSHA,WASTYES,QQYHRLPLS
nd,0 of 3,KSSQSILYEGRNKNSVA,WASTRES,QQYHRLPLK
nd,0 of 3,KSAQSVLYESRNKNSVA,WASTRES,TQYHRLPYS
nd,0 of 3,KSQQSVLYESRNKNSVA,WWSTRES,QQYHRLPLS
nd,0 of 3,KSSQSVLYESRNKNSVA,WASTRES,MQQHRLPLS
nd,0 of 3,KSSQSVLYDSRNKNSVA,WAATRES,QQYHRLPYS

The 4 strongest on average among those seen in every replicate, once more:

CDR-L1	CDR-L2	CDR-L3	mean, log10 nM	seen in
KSSQSMLYESRNKNSVA	YASTRES	QQYHRLPLS	0.19	3 of 3
KSSQSVLYESRNKNSVA	KASTRES	QQMHRLRLS	0.67	3 of 3
KSSQSVLYESRNKGSVA	WASTREE	QQYHRLMLS	0.69	3 of 3
KSSQSVLPESANKNSVA	WASTRES	QQYHPLPLS	0.72	3 of 3

Three control strains display no target. For library AAYL50, 18% of the pairings with them gave a signal, with a median of 4.19 and one signal in twenty below 2.99, so weak values seen in few replicates may be background.